## Ab-14 heavy chain CDR variants: yeast mating affinities

Target peptide (SARS-CoV-2 spike, HR2 region): PDVDLGDISGINAS

Each scFv is VH, the linker GGGGSGGGGSGGGGS, VL, as in the parent Ab-14, and differs from it in the CDRs of the heavy chain only.
VH: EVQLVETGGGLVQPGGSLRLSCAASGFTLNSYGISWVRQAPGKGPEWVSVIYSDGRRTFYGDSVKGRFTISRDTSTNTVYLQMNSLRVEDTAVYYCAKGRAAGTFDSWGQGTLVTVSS
VL: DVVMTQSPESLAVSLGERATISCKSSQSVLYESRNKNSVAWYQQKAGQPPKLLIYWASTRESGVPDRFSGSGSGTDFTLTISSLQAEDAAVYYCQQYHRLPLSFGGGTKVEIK

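Phage display of a naive human antibody library on the peptide gave the parent. The variants were designed computationally from a first round of random CDR variants and then made and measured. Group labels follow the data file (Ctrl: baseline library sampled from a position-specific scoring matrix, with some repeated check sequences; GP: Gaussian process model; GPLM: also part of the Gaussian process libraries; HC: hill climbing; a sequence that several methods proposed may carry one label only). The scFvs were displayed on barcoded MATa yeast, the peptide on MATalpha yeast. Pairs that bind mate more often; barcode pairs of the diploids are counted by sequencing. Scores were corrected for input abundance and mapped to Kd with protein pairs of known affinity run in the same pool. The assay was run in six technical replicates.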

Positions count from residue 1 of the parent VH; R56I puts I in place of R.
Affinities are written as log10 Kd with Kd in nM; a lower number is a better binder.
A mean of the replicates is given; it leaves out those without a signal.
"n.d." means that the variant was in the library but no mating with the target was seen in that replicate; the authors take this as a sign of poor binding, and no number exists.
The authors averaged sequences with at least three values out of six and counted those with two or fewer as poor binders.
Three control strains display no target. For all heavy chain designs, 1% of the pairings with them gave a signal, with a median of 2.08 and one signal in twenty below 0.84, so weak values seen in few replicates may be background. The control count says in how many pairings with the empty strains this scFv gave a signal, with their mean in brackets.
A sequence that the file lists under several names has all its replicates listed entry by entry, parted by semicolons.
The parent sequence was in this pool as ten entries: three were never detected, three once, and four in most replicates, with averages from 0.34 to 2.37.
A sequence measured in both rounds can read differently, since the two assays cover different ranges.

changes	group	log10 Kd, replicates	mean, log10 nM	control signals
R56I T58L	Ctrl	n.d. / n.d. / n.d. / n.d. / 1.88 / n.d.	1.88	0 of 18
R100Q A102K	Ctrl	n.d. / n.d. / n.d. / n.d. / n.d. / n.d.	n.d.	0 of 18
R100G T104Q	Ctrl	n.d. / n.d. / n.d. / n.d. / n.d. / n.d.	n.d.	0 of 18
F27T T28K	Ctrl	0.93 / 0.33 / 0.19 / 0.00 / 0.19 / 0.36	0.34	0 of 18
T28E I34R	Ctrl	n.d. / n.d. / n.d. / n.d. / 1.96 / n.d.	1.96	0 of 18
F59A G61I R100Q A101W G103V T104Q	Ctrl	n.d. / n.d. / n.d. / n.d. / n.d. / n.d.	n.d.	0 of 18
F27R Y32T R100W S107V	Ctrl	n.d. / n.d. / n.d. / n.d. / n.d. / n.d.	n.d.	0 of 18
N30D G61H R100A A102P	Ctrl	n.d. / n.d. / 0.88 / 1.57 / 2.17 / 1.27	1.47	0 of 18
T28S N30V S31M S107L	Ctrl	n.d. / n.d. / n.d. / n.d. / n.d. / n.d.	n.d.	0 of 18
N30D R100Q	Ctrl+GP_HC	n.d. / 1.10 / n.d. / 1.45 / n.d. / 1.60; 1.54 / n.d. / 1.83 / 1.58 / 2.21 / 1.22	1.57	2 of 36 (1.31)
G26K S31E R56Y G61S G103T S107Q	Ctrl	n.d. / n.d. / n.d. / n.d. / n.d. / n.d.	n.d.	0 of 18
V50M G61A S107K	Ctrl	n.d. / n.d. / n.d. / n.d. / n.d. / n.d.	n.d.	0 of 18
T104S	Ctrl	n.d. / n.d. / n.d. / n.d. / n.d. / n.d.	n.d.	0 of 18
S31D D106E	Ctrl+GPLM_HC	n.d. / 1.27 / 1.12 / 3.43 / 2.62 / 2.15; 1.70 / 1.15 / 1.82 / 2.77 / 2.04 / 2.54	2.06	1 of 36 (3.11)
N30L S31E R56V D106C	Ctrl	1.48 / 1.35 / n.d. / 1.29 / 1.01 / 0.87	1.20	0 of 18
N30G S53A F59E A101W	Ctrl	-0.02 / 0.59 / 0.07 / 0.13 / -0.15 / 0.61	0.21	0 of 18
G61L D62N G103R	Ctrl	n.d. / n.d. / n.d. / n.d. / n.d. / n.d.	n.d.	0 of 18
S35A G61S	Ctrl	n.d. / n.d. / n.d. / n.d. / n.d. / n.d.	n.d.	1 of 18 (1.77)
R56Y D106C S107L	Ctrl	n.d. / n.d. / n.d. / n.d. / n.d. / n.d.	n.d.	0 of 18
T28N G61E A101E	Ctrl	0.26 / 0.19 / -0.65 / 0.01 / -0.17 / 0.31	-0.01	0 of 18
F59S G61S R100T G103K	Ctrl	n.d. / n.d. / n.d. / n.d. / n.d. / 2.93	2.93	0 of 18
L29I R100Y A102S	Ctrl	n.d. / n.d. / n.d. / n.d. / n.d. / n.d.	n.d.	0 of 18
T28Q F59L D106P	Ctrl	n.d. / n.d. / n.d. / n.d. / n.d. / n.d.	n.d.	0 of 18
T28S L29P A101W	Ctrl	n.d. / n.d. / n.d. / n.d. / n.d. / n.d.	n.d.	0 of 18
S107M	Ctrl	n.d. / n.d. / 1.92 / 2.17 / 2.09 / 2.79	2.25	0 of 18
T28D S31D S107V	Ctrl	0.42 / 0.04 / -0.24 / -0.36 / -0.26 / -0.04	-0.07	0 of 18
G61N A102P	Ctrl	n.d. / n.d. / n.d. / n.d. / n.d. / n.d.	n.d.	0 of 18
N30D G61I A101I	Ctrl+GP_HC	1.16 / 2.01 / 1.54 / 1.38 / 1.50 / 2.53; n.d. / n.d. / -0.51 / n.d. / n.d. / n.d.	1.37	0 of 36
A102G S107M	Ctrl	n.d. / 1.90 / n.d. / n.d. / n.d. / 1.50	1.70	0 of 18
N30G G61K K65R	Ctrl	n.d. / 1.84 / 1.81 / n.d. / n.d. / n.d.	1.83	0 of 18
G61K S107W	Ctrl	n.d. / 1.75 / n.d. / 1.59 / 1.14 / 0.57	1.26	0 of 18
G26K N30A S31E R100T	Ctrl	n.d. / n.d. / n.d. / n.d. / n.d. / n.d.	n.d.	0 of 18
F59H R100Y	Ctrl	0.29 / n.d. / n.d. / 1.53 / 1.45 / 1.60	1.22	0 of 18
T28N F59H R100F T104Q	Ctrl	n.d. / n.d. / n.d. / n.d. / n.d. / n.d.	n.d.	0 of 18
R56Q F59W	Ctrl	1.75 / n.d. / n.d. / n.d. / n.d. / 1.75	1.75	0 of 18
S31T G61I T104R D106H	Ctrl	n.d. / n.d. / n.d. / n.d. / n.d. / n.d.	n.d.	0 of 18
T28D R100T S107L	Ctrl	0.19 / -0.05 / 0.09 / -0.13 / -0.19 / -0.09	-0.03	0 of 18
F27T R56L G61N G103K D106E S107V	Ctrl	n.d. / n.d. / n.d. / n.d. / 1.84 / n.d.	1.84	0 of 18
S53A G61I D62I A102S D106L	Ctrl	n.d. / n.d. / n.d. / n.d. / n.d. / n.d.	n.d.	0 of 18
F27Y F59S T104C	Ctrl	n.d. / n.d. / n.d. / n.d. / n.d. / n.d.	n.d.	0 of 18
S31D S53A R100A A101N A102D	Ctrl	n.d. / n.d. / n.d. / n.d. / n.d. / n.d.	n.d.	1 of 18 (2.18)

From the list, the first 2 with no signal in any replicate:

changes	group	log10 Kd, replicates	mean, log10 nM	control signals
R100Q A102K	Ctrl	n.d. / n.d. / n.d. / n.d. / n.d. / n.d.	n.d.	0 of 18
R100G T104Q	Ctrl	n.d. / n.d. / n.d. / n.d. / n.d. / n.d.	n.d.	0 of 18

Reference: Li et al. 2023, doi:10.1038/s41467-023-39022-2. File: FLAb, binding data.